# Antibody variant affinities, Ab-14 heavy chain, assay 1

Target peptide (SARS-CoV-2 spike, HR2 region): PDVDLGDISGINAS

Parent: Ab-14, a human scFv built as VH, the linker GGGGSGGGGSGGGGS, VL. Only the CDRs of the heavy chain vary.
VH: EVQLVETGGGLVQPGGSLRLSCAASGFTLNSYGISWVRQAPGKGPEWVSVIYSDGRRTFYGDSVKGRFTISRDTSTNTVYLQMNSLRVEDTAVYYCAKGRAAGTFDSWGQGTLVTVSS
VL: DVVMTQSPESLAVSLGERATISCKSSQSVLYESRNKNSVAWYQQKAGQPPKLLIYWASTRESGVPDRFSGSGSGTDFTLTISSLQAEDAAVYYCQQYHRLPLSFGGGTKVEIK

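The parent was found by panning a naive human phage display library on the peptide. Variants in AAYL49 differ from the parent at up to three CDR positions; double and triple changes were sampled at random. Affinity was read by AlphaSeq, a pooled yeast mating assay with surface-displayed partners. Binding brings cells together so that they mate, and sequencing counts the barcode pairs among the diploids. Read counts were normalised to the haploid input and turned into Kd by a linear fit to BCL2-family pairs of known affinity, for each replicate. There are three technical replicates.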

Each variant is given by its three heavy chain CDRs, as the data file delimits them; those of the parent are GFTLNSYGIS, VIYSDGRRTFYGDSVK, GRAAGTFDS.
Values are log10 of the apparent Kd in nM; lower means stronger binding.
"n.d." marks a missing value. The strain was present, yet no cells mated with the target were sequenced in that replicate, which points to weak or no binding.
As a blank, each scFv also met three strains without target: over library AAYL49, 15% of these pairings were detected, typically at 4.06 and seldom below 2.83. The control count says in how many pairings with the empty strains this scFv gave a signal, with their mean in brackets.
For reference, the parent read 0.65 as the reference entry and 4.11 (one replicate of three) as a member of this library.

{"CDR-H1": "GFTINSYGCS", "CDR-H2": "VIYSDGRRQFYGDSVK", "CDR-H3": "GRAAGTFDS", "log10 Kd, replicates": "n.d. n.d. n.d.", "empty controls": "0/9"}
{"CDR-H1": "GFTLNDRGIS", "CDR-H2": "VIYSDGRRTFYGDSVK", "CDR-H3": "GYAAGTFDS", "log10 Kd, replicates": "n.d. 5.62 4.37", "empty controls": "5/9 (4.19)"}
{"CDR-H1": "GYTLWSYGIS", "CDR-H2": "VIYSDGYRTFYGDSVK", "CDR-H3": "GRAAGTFDS", "log10 Kd, replicates": "4.03 n.d. 3.87", "empty controls": "3/9 (4.56)"}
{"CDR-H1": "GFTLNSYGIS", "CDR-H2": "VIYSVGRRTFYGDSVK", "CDR-H3": "GRAAGCFDS", "log10 Kd, replicates": "3.70 n.d. n.d.", "empty controls": "5/9 (3.74)"}
{"CDR-H1": "GFTLNSPGIS", "CDR-H2": "VIYSDGRRTFYPDSVK", "CDR-H3": "GRAAGKFDS", "log10 Kd, replicates": "n.d. n.d. 3.86", "empty controls": "0/9"}
{"CDR-H1": "GFTLNSYGIS", "CDR-H2": "VICSDGRQTFYGDSVK", "CDR-H3": "GRAAGTFDS", "log10 Kd, replicates": "n.d. n.d. 3.91", "empty controls": "2/9 (3.36)"}
{"CDR-H1": "HFTLNSYGIS", "CDR-H2": "VIYSDGRRTFYGDSVK", "CDR-H3": "GQAAGNFDS", "log10 Kd, replicates": "n.d. n.d. n.d.", "empty controls": "0/9"}
{"CDR-H1": "GFTLTSYGIW", "CDR-H2": "VIYSDGRRTFYGDSVK", "CDR-H3": "GRAAGAFDS", "log10 Kd, replicates": "4.00 4.02 n.d.", "empty controls": "3/9 (3.27)"}
{"CDR-H1": "GFTLNSYGIS", "CDR-H2": "VIYSDGRRTFYGDSVK", "CDR-H3": "FRIAGTFDS", "log10 Kd, replicates": "n.d. n.d. n.d.", "empty controls": "0/9"}
{"CDR-H1": "GFTLNSYTIS", "CDR-H2": "VIPSDGRRTFYGDSVL", "CDR-H3": "GRAAGTFDS", "log10 Kd, replicates": "n.d. n.d. n.d.", "empty controls": "1/9 (3.65)"}
{"CDR-H1": "GFTLNSYGIS", "CDR-H2": "VIYSWGRRTFYGDSVK", "CDR-H3": "GWKAGTFDS", "log10 Kd, replicates": "n.d. n.d. n.d.", "empty controls": "2/9 (3.83)"}
{"CDR-H1": "GFTSNSYGIS", "CDR-H2": "VIYSDGRRTFYGDSVK", "CDR-H3": "GRAAGLCDS", "log10 Kd, replicates": "n.d. n.d. n.d.", "empty controls": "1/9 (2.76)"}
{"CDR-H1": "GFTLNSYGYS", "CDR-H2": "VIYTDGRRTFYGDSVK", "CDR-H3": "GRNAGTFDS", "log10 Kd, replicates": "3.53 n.d. n.d.", "empty controls": "2/9 (3.26)"}
{"CDR-H1": "GFTLNSYGIS", "CDR-H2": "NIYSDGRRTFYGDSVK", "CDR-H3": "GRAHGWFDS", "log10 Kd, replicates": "n.d. 4.66 n.d.", "empty controls": "1/9 (4.08)"}
{"CDR-H1": "GFTLNSYGIS", "CDR-H2": "VIYSLGRRTFYGDTMK", "CDR-H3": "GRAAGTFDS", "log10 Kd, replicates": "n.d. n.d. n.d.", "empty controls": "0/9"}
{"CDR-H1": "GNGLNSYGIS", "CDR-H2": "VIYSDGRRTFYGDSVD", "CDR-H3": "GRAAGTFDS", "log10 Kd, replicates": "3.49 3.17 4.30", "empty controls": "5/9 (4.13)"}
{"CDR-H1": "GFTLNSYGIS", "CDR-H2": "VIYSLGRRTFYGDSVK", "CDR-H3": "GRAAGTKDS", "log10 Kd, replicates": "n.d. n.d. n.d.", "empty controls": "0/9"}
{"CDR-H1": "GWTLNSYGIS", "CDR-H2": "VIYSDGRRTFYGDSVK", "CDR-H3": "GRNAGDFDS", "log10 Kd, replicates": "2.43 2.42 1.96", "empty controls": "1/9 (4.73)"}
{"CDR-H1": "GFFLNSYGIS", "CDR-H2": "VIYFDGRRTFYGDSVK", "CDR-H3": "GRAAGTFDL", "log10 Kd, replicates": "2.52 2.42 2.61", "empty controls": "3/9 (4.13)"}
{"CDR-H1": "GFTLNSYGIT", "CDR-H2": "VIYSNGRRTFYGDSVK", "CDR-H3": "GRRAGTFDS", "log10 Kd, replicates": "5.54 4.28 n.d.", "empty controls": "3/9 (3.37)"}
{"CDR-H1": "GFTLNSYGIS", "CDR-H2": "VIYSDGYRTFYGDLVK", "CDR-H3": "GRAAHTFDS", "log10 Kd, replicates": "n.d. n.d. n.d.", "empty controls": "3/9 (4.31)"}
{"CDR-H1": "GFTLVSYGIS", "CDR-H2": "VIYSDARRTFYGDSVK", "CDR-H3": "GRAAGTGDS", "log10 Kd, replicates": "n.d. n.d. n.d.", "empty controls": "1/9 (3.49)"}

3 of these entries, quoted again:

CDR-H1,CDR-H2,CDR-H3,"log10 Kd, replicates",empty controls
GFTLNSYGIS,VIYSLGRRTFYGDSVK,GRAAGTKDS,n.d. n.d. n.d.,0/9
GFTLTSYGIW,VIYSDGRRTFYGDSVK,GRAAGAFDS,4.00 4.02 n.d.,3/9 (3.27)
GFTLVSYGIS,VIYSDARRTFYGDSVK,GRAAGTGDS,n.d. n.d. n.d.,1/9 (3.49)

Data: MIT Lincoln Laboratory AlphaSeq set, Engelhart et al. 2022, doi:10.1038/s41597-022-01779-4, as distributed in FLAb.